Reference: US10975082B2, “Inhibitor of FLT3 kinase and use thereof” (PRECEDO PHARMACEUTICALS CO., LTD, priority 2016, dated 2021)

Columns and labels:
Settings in all cases: MV-4-11, MOLM-13 and MOLM-14 cells, 4 hours; Compound 1 0.001-0.3 μM, AC220 0.1 μM
[1] = tested on: protein kinase FLT3
[2] = tested on: C-Myc
[3] = tested on: STAT5; test: Signaling pathways of FLT3 in cells: STAT5 phosphorylation; format: cell-based, human

CC(C)(C)c1cc(NC(=O)Nc2ccc(-c3cn4c(n3)sc3cc(OCCN5CCOCC5)ccc34)cc2)no1 [AC220, reference compound]
phosphorylation of the protein kinase FLT3 [1]: also inhibited phosphorylation | degradation of C-Myc [2]: comparable to that of Compound 1 at 0.001 μM | phosphorylation of STAT5 [3]: also inhibited phosphorylation
